Literature values as cited in US20130211209A1, “ENERGY AWARE SENSOR MANAGEMENT FOR WEARABLE MEDICAL SYSTEMS OPTIMIZATION” (published 2013).

By UniProt entry, the sequences of proteins in these tests, tags left out.
UniProt Q8R3U1, whole entry: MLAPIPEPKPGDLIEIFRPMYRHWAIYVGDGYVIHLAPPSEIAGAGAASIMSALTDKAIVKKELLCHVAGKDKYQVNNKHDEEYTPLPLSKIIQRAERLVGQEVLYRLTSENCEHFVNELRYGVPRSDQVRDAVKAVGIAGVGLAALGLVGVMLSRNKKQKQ
UniProt P47712, whole entry: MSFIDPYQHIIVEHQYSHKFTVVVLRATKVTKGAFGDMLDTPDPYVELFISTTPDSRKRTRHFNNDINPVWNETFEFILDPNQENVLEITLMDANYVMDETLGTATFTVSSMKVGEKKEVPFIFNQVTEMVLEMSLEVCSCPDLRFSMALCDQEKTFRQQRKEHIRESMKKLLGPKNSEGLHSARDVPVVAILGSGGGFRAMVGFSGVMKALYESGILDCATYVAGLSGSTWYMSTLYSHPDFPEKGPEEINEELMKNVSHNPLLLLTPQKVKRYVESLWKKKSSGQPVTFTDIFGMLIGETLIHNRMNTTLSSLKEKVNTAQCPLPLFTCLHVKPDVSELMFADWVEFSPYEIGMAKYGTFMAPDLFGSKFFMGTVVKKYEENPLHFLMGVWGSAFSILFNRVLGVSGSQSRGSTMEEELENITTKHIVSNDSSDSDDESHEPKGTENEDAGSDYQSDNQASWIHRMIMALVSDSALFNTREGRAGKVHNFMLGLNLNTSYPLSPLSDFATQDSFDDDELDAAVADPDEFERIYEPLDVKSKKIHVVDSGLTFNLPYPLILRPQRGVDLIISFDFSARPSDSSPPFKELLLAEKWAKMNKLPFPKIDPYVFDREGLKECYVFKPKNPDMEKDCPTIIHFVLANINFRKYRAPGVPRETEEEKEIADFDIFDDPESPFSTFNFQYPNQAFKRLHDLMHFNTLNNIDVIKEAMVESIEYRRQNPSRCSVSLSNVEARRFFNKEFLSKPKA
UniProt O60733, whole entry: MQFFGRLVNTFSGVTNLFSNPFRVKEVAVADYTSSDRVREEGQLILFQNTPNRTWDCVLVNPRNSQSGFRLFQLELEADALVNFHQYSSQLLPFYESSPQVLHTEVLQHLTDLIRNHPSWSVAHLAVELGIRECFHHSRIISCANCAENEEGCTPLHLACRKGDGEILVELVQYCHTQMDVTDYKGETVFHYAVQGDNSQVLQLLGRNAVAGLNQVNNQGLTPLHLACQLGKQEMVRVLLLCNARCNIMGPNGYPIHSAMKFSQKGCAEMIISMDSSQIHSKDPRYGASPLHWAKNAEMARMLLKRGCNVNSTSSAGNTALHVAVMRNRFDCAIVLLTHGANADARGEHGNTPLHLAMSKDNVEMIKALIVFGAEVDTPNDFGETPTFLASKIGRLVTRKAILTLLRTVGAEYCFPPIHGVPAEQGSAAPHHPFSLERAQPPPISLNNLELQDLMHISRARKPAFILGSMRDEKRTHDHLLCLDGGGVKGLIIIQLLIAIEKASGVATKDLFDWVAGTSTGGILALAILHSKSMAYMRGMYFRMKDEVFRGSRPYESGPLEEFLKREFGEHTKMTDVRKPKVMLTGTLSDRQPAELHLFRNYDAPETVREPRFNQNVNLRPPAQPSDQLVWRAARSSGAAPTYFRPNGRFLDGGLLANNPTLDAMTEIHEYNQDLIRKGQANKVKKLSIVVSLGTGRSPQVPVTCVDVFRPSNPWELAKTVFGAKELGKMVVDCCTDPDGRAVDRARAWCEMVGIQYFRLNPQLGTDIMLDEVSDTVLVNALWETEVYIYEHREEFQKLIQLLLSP

How the values were obtained:
PLA2G16 = PLA2G16 (Mus musculus, UniProt Q8R3U1)
cPLA2 = cPLA2 (Homo sapiens, UniProt P47712)
iPLA2 = iPLA2 (Homo sapiens, UniProt O60733)

CCCCC/C=C\C/C=C\C/C=C\C/C=C\CCCCOP(=O)(F)OC (stereo not drawn)
inhibits: inhibition of PLA2G16 (PLA2G16) | inhibition of cPLA2 (cPLA2) | inhibition of iPLA2 (iPLA2)
